We go through one molecule from ChEMBL document CHEMBL2163296 (J Med Chem, 2012).

Sequences of proteins named here, by UniProt entry; tags and fusion partners are left off.
UniProt P28223, whole entry: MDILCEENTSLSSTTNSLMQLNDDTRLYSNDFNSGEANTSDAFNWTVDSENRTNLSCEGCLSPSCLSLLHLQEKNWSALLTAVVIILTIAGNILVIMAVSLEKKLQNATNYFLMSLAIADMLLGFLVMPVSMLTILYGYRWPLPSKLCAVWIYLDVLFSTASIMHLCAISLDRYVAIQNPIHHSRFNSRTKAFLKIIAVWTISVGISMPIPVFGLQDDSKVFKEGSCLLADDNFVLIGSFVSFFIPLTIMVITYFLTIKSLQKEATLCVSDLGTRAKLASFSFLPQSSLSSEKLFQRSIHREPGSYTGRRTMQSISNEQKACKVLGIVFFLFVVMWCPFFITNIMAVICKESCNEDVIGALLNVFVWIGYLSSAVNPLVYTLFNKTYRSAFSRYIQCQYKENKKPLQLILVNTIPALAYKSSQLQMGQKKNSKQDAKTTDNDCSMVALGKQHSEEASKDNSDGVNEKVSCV

For the assay, the target named is 5-hydroxytryptamine receptor 2A (Homo sapiens) (UniProt P28223). The conditions noted are these: CHO-K1; 50 uM.

The inhibition is how much of the control response was suppressed. In the case of `CNC(=O)c1cc(Oc2ccc(NC(=O)Nc3ccc(Cl)c(C(F)(F)F)c3)cc2)ccn1` [SORAFENIB], the inhibition is 93.3%.
